This note sets out measurements from patent US20240246946A1, “MODULATORS OF TREX1” (Constellation Pharmaceuticals, Inc., priority 2021, published 2024).

Protein sequences, listed by entry. Tags and fused reporters are not part of them.
UniProt Q91XB0, whole entry: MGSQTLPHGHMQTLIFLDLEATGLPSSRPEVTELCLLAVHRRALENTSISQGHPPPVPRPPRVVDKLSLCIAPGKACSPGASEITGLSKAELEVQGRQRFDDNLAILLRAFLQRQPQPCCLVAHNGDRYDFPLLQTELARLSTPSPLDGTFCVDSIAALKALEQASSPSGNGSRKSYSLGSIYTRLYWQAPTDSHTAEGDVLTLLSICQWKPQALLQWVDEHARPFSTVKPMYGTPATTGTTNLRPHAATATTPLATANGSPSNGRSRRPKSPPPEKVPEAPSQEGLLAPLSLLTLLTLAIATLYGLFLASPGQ
UniProt Q9BQ50, whole entry: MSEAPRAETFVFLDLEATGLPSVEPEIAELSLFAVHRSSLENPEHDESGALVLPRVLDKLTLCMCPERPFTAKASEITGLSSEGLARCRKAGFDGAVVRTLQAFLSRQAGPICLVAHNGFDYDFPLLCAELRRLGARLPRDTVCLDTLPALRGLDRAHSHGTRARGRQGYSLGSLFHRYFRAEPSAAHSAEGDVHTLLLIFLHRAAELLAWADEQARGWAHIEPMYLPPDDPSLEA
UniProt Q9NSU2, whole entry: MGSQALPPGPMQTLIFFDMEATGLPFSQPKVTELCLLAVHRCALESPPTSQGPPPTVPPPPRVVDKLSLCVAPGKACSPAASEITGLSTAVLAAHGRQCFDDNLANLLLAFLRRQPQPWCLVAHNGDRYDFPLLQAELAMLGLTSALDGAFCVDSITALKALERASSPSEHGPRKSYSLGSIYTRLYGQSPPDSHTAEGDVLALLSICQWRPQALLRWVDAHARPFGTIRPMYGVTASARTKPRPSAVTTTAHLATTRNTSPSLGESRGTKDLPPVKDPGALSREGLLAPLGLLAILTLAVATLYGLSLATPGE

A value given as a limit tells only on which side of the number the result lay.

The target in one assay is full length mouse TREX1 (Mus musculus, UniProt Q91XB0). Nature of the assay: mTREX1 Biochemical Assay (fluorescence, dsDNA substrate degradation). Conditions: read-out: mTREX1 IC50.
The target of assay [1] is human TREX2 (residues M44-A279) (Homo sapiens, UniProt Q9BQ50). Nature of the assay: hTREX2 Biochemical Assay (fluorescence, dsDNA substrate degradation). Conditions: biochemical selectivity for hTREX1 vs hTREX2. As for the experimental part:
Degradation of the dsDNA liberates free fluorophore to produce a fluorescent signal. Specifically, 7.5 μL of N-terminally His-Tev tagged human TREX2 (residues M44-A279, expressed in E. coli and purified in house) in reaction buffer (50 mM Tris, 150 mM NaCl, 2 mM DTT, 0.1 mg/mL BSA, 0.01% (w/v) Tween-20, 5 mM MgCl2, pH 7.4) was added to a 384-well Black ProxiPlate Plus (PerkinElmer) which already contained compound (150 nL) at varying concentrations as a 10 point dose-response in DMSO. The plate was incubated at 25° C. for 4 hours. Reactions were initiated by adding 7.5 μL of dsDNA substrate (Strand A: 5′ TEX615/GCT AGG CAG 3′; Strand B: 5′ CTG CCT AGC/IAbRQSp (IDT)) in reaction buffer. Final concentrations were 50 pM TREX2, 60 nM dsDNA substrate in reaction buffer with 1.0% DMSO (v/v). After 18 hours at 25° C., reactions were quenched by the addition of 2 μL of 500 mM EDTA. Final concentrations in the quenched reaction mixture were 44 pM TREX2, 53 nM DNA and 59 mM EDTA in a volume of 17 μL. After a 5-minute incubation at room temperature, plates were read in an EnVision plate reader (PerkinElmer) measuring fluorescence at 615 nm following excitation w/570 nm light. IC50 values were calculated by comparing the measured fluorescence at 615 nm relative to control wells pre-quenched w/stop buffer (100% inhibition) and no inhibitor (0% inhibition) controls as using non-linear least square four parameter fits and either Genedata or GraphPad Prism (GraphPad Software, Inc.).

For assay [2], the target named is T1, full length human TREX1 (Homo sapiens, UniProt Q9NSU2). The assay can be described thus: hTREX1 Biochemical Assay (fluorescence, dsDNA substrate degradation). Conditions: read-out: hTREX1 IC50.
The target of assay [3] is T1, full length human TREX1. The assay can be described thus: TREX1 Kinetics Assays (TR-FRET association and dissociation, global fit with Kintek Explorer). (In general: Time-resolved FRET reads energy transfer from a long-lived donor to a nearby acceptor.)

The term IC50 denotes the concentration needed to halve the response being measured. For orientation: residence time means the mean lifetime of the complex, commonly the reciprocal of the off-rate. What is called koff is the rate constant with which the complex falls apart. The low end stands for slow dissociation, the high end for fast dissociation. As for `CC(c1nc(C(=O)Nc2cnoc2)c(O)c(=O)n1C(C)C)C(c1cnn(C)c1)c1ccccc1C#N` (single isomer, unassigned) [Example 150 D1E2], the values for the half-maximal inhibitory concentration (IC50) on full length mouse TREX1 and at full length human TREX1 [2] were 0.001 to 0.01 µM and less than 0.001 µM, respectively. Moreover, the “hTREX1 vs hTREX2 selectivity” value in assay [1] is recorded as “C (C = >50 fold selective for hTREX1)”. Moreover, the residence time on full length human TREX1 [3] (hTREX1, TR-FRET kinetics) is 182 min. In addition, the koff at full length human TREX1 [3] (hTREX1, TR-FRET, 25° C., global fit) came to 9.13e-05 s⁻¹.

On to `CC(c1nc(C(=O)Nc2cnoc2)c(O)c(=O)n1C(C)C)C(c1cnn(C)c1)c1ccccc1C#N` (single isomer, unassigned) [Example 150 D2E1], for which the IC50 on full length mouse TREX1 and on full length human TREX1 [2] was greater than 0.01 µM throughout. Also, the “hTREX1 vs hTREX2 selectivity” value in assay [1] is “A (A = <25 fold selective for hTREX1)”.
